GIV-Gai inh = inhibitors of GIV peptide binding to Galpha-i3, primary screen, biochemical, fluorescence polarization, FITC-GIV GBA peptide, rat Galphai3 | Guanine nucleotide-binding protein G(i) subunit alpha-3 (Rattus norvegicus), P08753 | 90 min; active compounds read low; scaled: aluminum fluoride 0%, vehicle 100% | 210,000 tested, 0.42% active | AID 1224905, 2016 | percent of control (FP), % (no concentration beside the values);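 active means replicate mean at 85% of control or lower, very high polarization wells dropped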;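 further: wells of about 15 µL received 100 nL stock; the first replicate is given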
GIV-Gai FP conf = GIV-Galpha-i3 inhibition, FP confirmation; fluorescence polarization, mP at 100 µM; shares compounds with GIV-Gai inh; FITC-GIV peptide binding to Galphai3, fluorescence polarization; hits give low values; 580 tested, 38% active;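 active = inhibition score of 15 or more, meaning 100 minus mean polarization as percent of control over three replicates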;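 note: lower mP means peptide displaced from Galphai3 so more inhibition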
GIV Gai AS conf = GIV-Galpha-i3 inhibition, AlphaScreen confirmation; shares compounds with GIV-Gai inh; AlphaScreen Galphai3-GIV binding, purified proteins, 90 min; hits give low values; AlphaScreen counts at 100 µM; 580 tested, 39% active; AID 1259351;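 active = inhibition score at or above a set limit, where the score is 100 minus the three-replicate mean percent of control signal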
Large screens that a line does not name were inactive (follow-up assays come after a bar, where they were run). The sample as a whole holds a higher share of hits than the screen did.

By UniProt entry, the sequences of proteins in these tests, tags left out.
Guanine nucleotide-binding protein G(i) subunit alpha-3 (Rattus norvegicus), P08753, UniProt P08753, whole entry, looked up: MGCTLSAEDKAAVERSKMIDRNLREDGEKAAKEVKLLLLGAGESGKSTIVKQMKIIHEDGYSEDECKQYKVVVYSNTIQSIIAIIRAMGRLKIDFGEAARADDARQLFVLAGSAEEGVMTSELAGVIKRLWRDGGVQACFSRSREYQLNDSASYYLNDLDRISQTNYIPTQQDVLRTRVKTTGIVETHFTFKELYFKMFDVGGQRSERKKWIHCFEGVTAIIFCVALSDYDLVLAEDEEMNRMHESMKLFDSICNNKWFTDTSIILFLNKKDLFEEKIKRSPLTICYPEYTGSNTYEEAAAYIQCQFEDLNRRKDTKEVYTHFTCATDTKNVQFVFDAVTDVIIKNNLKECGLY

O=C(CSc1nnc(N2C(=O)c3ccccc3C2=O)s1)NC1CC1	none
CCOC(=O)C1=C(C)N=c2s/c(=C\c3cc([N+](=O)[O-])ccc3N3CCOCC3)c(=O)n2C1c1cc(OC)ccc1OC (stereo unspecified)	none
CCOC(=O)C1=C(C)N=c2s/c(=C\c3cc([N+](=O)[O-])ccc3N3CCOCC3)c(=O)n2C1c1ccccc1 (stereo unspecified)	none
CCOC(=O)C1=C(C)N=c2s/c(=C\c3cc([N+](=O)[O-])ccc3N3CCOCC3)c(=O)n2C1c1cccc(OC)c1 (stereo unspecified)	none | GIV-Gai FP conf inactive | GIV Gai AS conf inactive
O=C(O)CC1(CC(=O)N2CCN(c3nc(-c4ccccc4)c4ccccc4n3)CC2)CCCC1	none
CCCSc1nnc2c(n1)OC(c1sccc1C)Nc1ccccc1-2 (stereo unspecified)	none
CCCSc1nnc2c(n1)OC(c1ccco1)Nc1ccccc1-2 (stereo unspecified)	GIV-Gai inh 78 | GIV-Gai FP conf inactive | GIV Gai AS conf 5688
CCCCSc1nnc2c(n1)OC(/C=C/c1ccco1)Nc1ccccc1-2 (stereo unspecified)	none
CCSc1nnc2c(n1)OC(c1cc(Br)ccc1OC)Nc1ccccc1-2 (stereo unspecified)	none
CCCSc1nnc2c(n1)OC(c1ccccc1)Nc1ccccc1-2 (stereo unspecified)	none
CCCCSc1nnc2c(n1)OC(/C=C/c1ccccc1[N+](=O)[O-])Nc1ccccc1-2 (stereo unspecified)	GIV-Gai inh 80 | GIV-Gai FP conf inactive | GIV Gai AS conf 33401
CCCSc1nnc2c(n1)OC(c1ccccc1OCC(=O)OCC)Nc1ccccc1-2 (stereo unspecified)	GIV-Gai inh 21 | GIV-Gai FP conf inactive | GIV Gai AS conf 34096
CSc1nnc2c(n1)OC(/C=C/c1ccccc1[N+](=O)[O-])Nc1ccccc1-2 (stereo unspecified)	none
CCCSc1nnc2c(n1)OC(c1ccc(Cl)cc1)Nc1ccccc1-2 (stereo unspecified)	none
CCSc1nnc2c(n1)OC(c1ccc(Br)cc1)Nc1ccccc1-2 (stereo unspecified)	GIV-Gai inh 24 | GIV-Gai FP conf 30 | GIV Gai AS conf inactive
CCOC(=O)COc1ccccc1C1Nc2ccccc2-c2nnc(SC)nc2O1 (stereo unspecified)	none
CCSc1nnc2c(n1)OC(c1cccc(Cl)c1)Nc1ccccc1-2 (stereo unspecified)	none
Cc1ccccc1-n1c(=S)sc2c1nc(SCc1ccc(Cl)cc1)n1c3ccccc3nc21	none
CC1=NN(c2ccccc2)C(c2ccccc2)C1 (stereo unspecified)	none
CCc1ccc(NC(=O)CSC2=C(C#N)C(c3ccco3)C(C(N)=O)=C(C)N2)cc1 (stereo unspecified)	none
CCOC(=O)C1CCN(C(=O)CN2CCN(Cc3ccccc3)C(=O)C2=O)CC1	none
CSc1sccc1/C=N/NC(=O)c1nnn(-c2nonc2N)c1-c1ccccc1	none
CCOc1cccc(NC(=O)C2CC(=O)N(Cc3ccc4c(c3)OCO4)C(=Nc3ccc(OC)cc3)S2)c1 (stereo unspecified)	none
Cc1ccc(C(=O)c2cc(F)c(N3CCOCC3)cc2Cl)cc1C	none
Cc1cc(N2CCOCC2)c(F)cc1C(=O)c1ccccc1	none | GIV-Gai FP conf inactive | GIV Gai AS conf inactive
Cc1ccc(C(=O)c2ccc(N3CCOCC3)c(F)c2)cc1	none
CCCc1nnc(NC(=O)CSc2nnc(-c3cc4ccccc4o3)n2C)s1	none
Cc1c(C(=O)N2CCN(c3cccc(Cl)c3)CC2)sc2ncn(CC(=O)N3CCCC(C)C3)c(=O)c12 (stereo unspecified)	none
CCn1nccc1NC(=O)c1ccc(C(C)(C)C)cc1	none
Cc1ccn2c(=O)cc(COc3ccc(NC(=O)COc4ccc(Cl)cc4)cc3)nc2c1	none
Cc1c(Cl)cccc1NC(=O)Nc1cccc(OCc2cc(=O)n3ccccc3n2)c1	none
Cc1ccn2c(=O)cc(COc3ccc(NC(=O)C(C)(C)C)cc3)nc2c1	none
COc1cc(OC)c(NC(=O)Nc2cccc(OCc3cc(=O)n4ccccc4n3)c2)cc1Cl	none
Cc1ccn2c(=O)cc(COc3ccc(NC(=O)Nc4ccc(Cl)cc4)cc3)nc2c1	GIV-Gai inh 82 | GIV-Gai FP conf inactive | GIV Gai AS conf inactive
Cc1ccn2c(=O)cc(COc3cccc(NC(=O)Nc4cccc(Cl)c4C)c3)nc2c1	none | GIV-Gai FP conf inactive | GIV Gai AS conf inactive
CCc1ccccc1NS(=O)(=O)c1cc(-c2nc(C(C)(C)C)cs2)cs1	none
Cc1cccc(C)c1NC1=NC(=S)N(c2ccccc2Cl)C12CCC(C(C)(C)C)CC2 (stereo unspecified)	none
CN(C(=O)c1cccc(Oc2ccnc(-c3ccc(F)cc3)n2)c1)C1CCCCC1	none
CC(=O)N1CCc2cc(S(=O)(=O)N3CCc4ccccc4C3CN3C(=O)c4ccccc4C3=O)ccc21 (stereo unspecified)	none
COc1ccc(-c2noc(N3CCC(C(=O)N4CCN(c5ccccc5)CC4)CC3)n2)cc1	none
CCC(C(=O)N(CC)c1ccccc1)n1cnc2nc3c(cc2c1=O)CCCC3 (stereo unspecified)	none
Cn1c(C(O)c2ccccc2)nc2ccccc21 (stereo unspecified)	none
CCOC(=O)C(Cc1ccccc1)N1C(=O)c2ccccc2C1=O (stereo unspecified)	none
CCOC(=O)C(Cc1ccc(O)cc1)NS(=O)(=O)c1ccc2c(c1)C(=O)c1ccccc1C2=O (stereo unspecified)	none
CCOC(=O)C(Cc1ccc(O)cc1)NC1=CC(=O)C(=O)c2ccccc21 (stereo unspecified)	GIV-Gai inh 82 | GIV-Gai FP conf 53 | GIV Gai AS conf inactive
COc1cc(C=C2C(=O)NC(=O)NC2=O)ccc1OC(=O)c1cc(F)c(F)cc1Cl	none
COc1ccc(C(=O)Oc2c(Cl)cc(C=C3C(=O)NC(=O)NC3=O)cc2OC)cc1	none
COc1ccc(C(=O)Oc2ccc(C=C3C(=O)NC(=O)NC3=O)cc2Cl)cc1	GIV-Gai inh 76 | GIV-Gai FP conf inactive | GIV Gai AS conf 24807
O=C(Cn1c(=O)c(C(F)(F)F)nc2ccccc21)NCc1ccc(Cl)cc1	none
NC(=O)NC(=O)c1nc2nonc2[nH]c1=O	GIV-Gai inh 44 | GIV-Gai FP conf 42 | GIV Gai AS conf inactive
O=c1[nH]c2nonc2nc1/C=C(\O)c1ccccc1	none
COc1cccc(CNC(=O)c2c3c(nc4ccccc24)C(=O)N(C2CCCCC2)C3)c1	none | GIV-Gai FP conf inactive | GIV Gai AS conf inactive
COc1ccc(CNC(=O)c2c3c(nc4ccccc24)C(=O)N(C2CCCCC2)C3)c(OC)c1	none
COc1ccc(CNC(=O)c2c3c(nc4ccccc24)C(=O)N(C2CCCCC2)C3)cc1	none
CCc1nc2nc3c(c(NCc4ccc(F)cc4)n2n1)CCC3	none
Cc1cccc2cc3c(nc12)N(C(=O)CC(C)C)CC3	none
Cc1nccn1C(=O)c1cc2ccccc2oc1=O	none
CC1CC(C)CN(CC2CCN(C(=O)Nc3cccc(F)c3)CC2)C1 (stereo unspecified)	none
Cc1ccc(C(=O)Nc2ccc3c(c2)CCC(=O)N3)cc1C	none
CCOC(=O)[C@@H]1Nc2ccc(Br)cc2[C@@H]2C=CC[C@H]12	none
